The text below walks through data of patent publication US20240050434A1, “HORMAD1 THERAPEUTICS” (Royal Cancer Hospital, priority 2020, published 2024).

Entries after “also recorded” stand apart in the source; their conditions may differ.

The test system of assay [1] is RPE1 cells expressing a doxycycline-inducible HORMAD1 construct. The assay can be described thus: Incucyte time-lapse confluence/proliferation in RPE1 cells with doxycycline-inducible HORMAD1. The assay is classed as cell-based. The settings on record: incucyte confluence; 200 nM BOS172722 or 20 nM AZD1152-HQPA 10 days; 3 μM BAY-1816032 14 days. The method, then: (§1) Cell confluence was analysed every 6 hours for 10 days, using incucyte software. Data are from 3 biological replicates and analysed using a two-way ANOVA. […] RPE1 cells expressing a doxycycline-inducible HORMAD1 expression construct were exposed to doxycycline or vehicle (H2O) and were exposed to 20 nM of the Aurora B inhibitor, AZD1152-HQPA. Cell confluence was analysed every 6 hours for 10 days, using incucyte software. Data are from 3 biological replicates and analysed using a two-way ANOVA. […] 7-10 days post drugging, cells were fixed, stained with SRB, and colonies were counted using Cell Profiler. […] 10 days post drugging, cells were fixed, stained with SRB, and colonies were counted using Cell Profiler. […] 7-10 days post drugging, cells were fixed, stained with SRB, and colonies were counted using Cell Profiler. […] 10 days post drugging, cells were fixed, stained with SRB, and colonies were counted using Cell Profiler.
(§2) RPE1 cells were reverse transfected with BUB1 or control siRNA particles for 3 days. Cell lysates were collected, and analysed by western blotting using anti-BUB1 and anti-β-ACTIN antibodies. […] 5 days post transfection, cellular viability was estimated using cell titer glo reagent and surviving fractions were calculated relative to DMSO treated cells. […] Cells were fixed, stained with SRB, and cellular viability was estimated using SRB absorbance readings. […]

Assay [2] shares this test system. The assay can be described thus: Clonogenic survival assay (SRB) in RPE1 cells with doxycycline-inducible HORMAD1. The format is cell-based. As to conditions: increasing doses, 7-14 days, normalised to vehicle. The method, then: as §1, §2
In assay [3] the test system is SUM159 cells expressing a doxycycline-inducible HORMAD1 construct. In words: Clonogenic survival assay (SRB) in SUM159 cells with doxycycline-inducible HORMAD1. The format is cell-based. The settings on record: increasing doses, 10-14 days, normalised to vehicle. As to the method: as §1
RPE1 and SUM159 cells expressing a doxycycline-inducible HORMAD1 construct were treated with doxycycline or vehicle. […] Surviving fractions were calculated (normalised to vehicle treated cells). […] Data from 3 replicas was analysed using 2-way ANOVA. […] Surviving fractions were calculated (normalised to vehicle treated cells). Data from 4 replicas was analysed using 2-way ANOVA. […]

Assay [4] deals with HORMAD1 positive organoid KCL625. In words: HORMAD1 positive organoid KCL625 viability by cell titer glo. The format is cell-based. As to conditions: indicated doses, 10 days. The method, then:
. Organoids were treated with the indicated doses of drug for 10 days and cell viability assessed by cell titer glo. Data is presented as mean and standard deviation of triplicate wells;
A general note: In ATP-based viability assays light output follows the ATP content of the culture.

The test system of assay [5] is RPE1 cells expressing a doxycycline-inducible HORMAD1 expression construct. The assay can be described thus: Mitotic slippage by time-lapse microscopy in nocodazole-arrested RPE1 cells. The format is cell-based. As to conditions: 300 nM nocodazole arrest, then 100-200 nM reversine, 50 nM BOS172722 or AZD1152-HQPA. As to the method:
(§3) A. Diagram of experimental outline. Cells were exposed to doxycycline for 3 days, arrested in mitosis using 300 nM nocodazole or 100 nM Paclitaxel. Mitotic cells were filmed every 4 minutes for 1200 minutes, and the time cells remained arrested in mitosis before exiting via mitotic slippage was assessed. […] RPE1 cells expressing a doxycycline-inducible HORMAD1 cDNA expression construct were exposed to doxycycline or vehicle (H2O) for three days at which point cells were exposed to 300 nM nocodazole and filmed every 4 minutes using time-lapse microscopy. The time individual cells remained arrested in mitosis was quantified and presented as the % of cells arrested in mitosis at each time point. Data reflects a total of 125 cells from 3 biological repeats and was analysed using Mantel-Cox test. C. […] The time individual cells remained arrested in mitosis was quantified and presented as the % of cells arrested in mitosis at each time point. Data reflects a total of 125 cells from 3 biological repeats and was analysed using Mantel-Cox test. […] H1299 cells expressing two individual, doxycycline-inducible, shRNA particles targeting HORMAD1 as well as a non-targeting control were grown for three days in the presence of doxycycline at which point cell lysates were generated and analysed by SDS-PAGE and western blotting using anti-HORMAD1 and anti-β-ACTIN antibodies. […]

Assay [6] shares this test system. As to conditions: 200 nM, 3 days post drugging. As to the method: as §3

With `CCOc1cc(-c2nncn2C)ccc1Nc1ncc2cc(C)nc(NCC(C)(C)C)c2n1` [BOS172722, N2-(2-Ethoxy-4-(4-methyl-4 H-1,2,4-triazol-3-yl)phenyl)-6-methyl-N8-neopentylpyrido[3,4-d]pyrimidine-2,8-diamine], the “cellular growth / fitness of HORMAD1 expressing RPE1 cells versus vehicle-induced cells under drug” value in assay [1] is given as “marked decrease in cellular growth; also recorded: decreased cellular fitness”. Moreover, the “clonogenic survival / sensitivity of HORMAD1 expressing versus HORMAD1-negative RPE1 cells” value in assay [2] is given as “more effectively inhibited; also recorded: reduced clonogenic survival; also recorded: increased MPSI inhibitor sensitivity”. Also, the “clonogenic survival / sensitivity of HORMAD1 expressing versus HORMAD1-negative SUM159 cells” value in assay [3] is “more effectively inhibited; also recorded: reduced clonogenic survival; also recorded: increased MPSI inhibitor sensitivity”. For the same molecule, the “sensitivity (surviving fraction versus DMSO) of organoid KCL625” value in assay [4] is recorded as “reduced surviving fraction; also recorded: high sensitivity”. Further, the “mitotic slippage / mitotic exit in HORMAD1 induced RPE1 cells” value in assay [5] is “Very similar results; also recorded: premature mitotic slippage”. In assay [6], the “cells with centromere containing micronuclei, HORMAD1 expressing RPE1 cells” value was “increased centromere containing micronuclei”.
